The assay addresses T1, JAK2 (Homo sapiens, UniProt O60674).
T1 construct: purchased KinaseProfiler (Eurofin, Brussels, Belgium)
Nature of the assay: Cell-free kinase activity assay, JAK2. It counts as biochemical.

Protein sequences, listed by entry. Tags and fused reporters are not part of them. Lines headed by an entry give the natural chain unless they say otherwise; changes in a name come on top.
UniProt O60674: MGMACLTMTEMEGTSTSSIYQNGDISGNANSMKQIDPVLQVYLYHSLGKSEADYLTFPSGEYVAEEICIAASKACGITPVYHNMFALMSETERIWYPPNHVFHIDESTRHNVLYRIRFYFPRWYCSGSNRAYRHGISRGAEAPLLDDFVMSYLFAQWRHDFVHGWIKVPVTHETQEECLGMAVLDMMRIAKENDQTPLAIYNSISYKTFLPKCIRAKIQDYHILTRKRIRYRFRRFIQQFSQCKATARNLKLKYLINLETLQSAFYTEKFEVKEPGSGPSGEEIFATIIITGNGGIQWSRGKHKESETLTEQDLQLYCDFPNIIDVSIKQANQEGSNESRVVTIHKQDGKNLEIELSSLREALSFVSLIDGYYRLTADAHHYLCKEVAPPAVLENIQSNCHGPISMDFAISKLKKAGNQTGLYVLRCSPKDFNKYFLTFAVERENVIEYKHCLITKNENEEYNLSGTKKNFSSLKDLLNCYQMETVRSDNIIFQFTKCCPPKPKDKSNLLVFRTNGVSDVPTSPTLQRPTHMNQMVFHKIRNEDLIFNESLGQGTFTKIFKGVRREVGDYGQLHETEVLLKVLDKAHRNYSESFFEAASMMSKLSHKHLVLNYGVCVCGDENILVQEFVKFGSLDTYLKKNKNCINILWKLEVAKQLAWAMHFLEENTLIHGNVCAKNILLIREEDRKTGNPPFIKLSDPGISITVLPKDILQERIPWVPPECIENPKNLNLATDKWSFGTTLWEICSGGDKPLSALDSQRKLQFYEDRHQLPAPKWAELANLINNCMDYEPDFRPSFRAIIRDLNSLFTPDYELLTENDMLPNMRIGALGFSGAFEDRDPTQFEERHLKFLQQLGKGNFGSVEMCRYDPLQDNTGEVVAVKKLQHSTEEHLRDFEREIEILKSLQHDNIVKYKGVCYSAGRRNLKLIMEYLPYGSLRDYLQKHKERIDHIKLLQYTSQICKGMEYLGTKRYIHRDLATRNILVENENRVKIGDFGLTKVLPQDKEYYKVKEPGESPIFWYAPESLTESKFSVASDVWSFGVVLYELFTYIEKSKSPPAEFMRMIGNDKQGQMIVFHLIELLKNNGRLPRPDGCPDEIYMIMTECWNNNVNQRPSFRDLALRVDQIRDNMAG

For one compound, IC50 results are on record in publication PMC11808136, “Screening and identification of host signaling pathways for alleviating influenza-induced production of pro-inflammatory cytokines, IP-10, IL-8, and MCP-1, using a U937 cell-based influenza model” (Frontiers in Microbiology, 2025).

The structures appear in SMILES notation.

As for `CCS(=O)(=O)N1CC(CC#N)(n2cc(-c3ncnc4[nH]ccc34)cn2)C1` [Baricitinib], the midpoint of inhibition, the IC50, lay at 1 nM.
